E-sel inducer: E-selectin induction on HUVECs; 260,000 compounds, 0.37% hits; P16581; AID 686992; HUVEC E-selectin immunofluorescence imaging; normalized: neutral wells 0, TNF-alpha wells 100; activation, % at 7.58 µM;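 active = mean E-selectin-positive cell signal at least 10% of the positive control, reached in at least 60% of replicates, without over 20% cell loss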
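material = human umbilical vein endothelial cells (HUVEC), E-selectin induction | quantity = 3,000 cells/well | medium = EGM-2 growth medium on 0.1% gelatin-coated wells | technique = immunofluorescence imaging | read-out basis = % PE-positive cells | control set = TNF-alpha positive control, DMSO neutral control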
PGC1a acetyl inh: PGC1a acetylation modulation, inhibitor mode. 350,000 compounds, 0.17% hits. inhibition, % at 15.6 µM. U2OS PGC1a acetylation, AlphaScreen anti-acetyl-lysine; with virally co-expressed GCN5 acetyltransferase;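 active = every replicate shows inhibition of at least 40%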;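 note: 0% = neutral control wells and 100% = positive control wells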
UUG fidelity: modulators of start codon recognition fidelity in yeast. S. cerevisiae UUG-firefly luciferase reporter, luminescence/redox ratio. activity score, % at 18.7 µM. 0.13% of 350,000 active. AID 602363;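 active = replicate mean at a twofold rise or more, about +100% in these data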;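 also: firefly luciferase made from a UUG start codon reports start codon fidelity; reporter light over untreated wells divided by growth signal over untreated wells; some hits fall short of that in this replicate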
PglD DTNB: blocks C. jejuni PglD acetyltransferase activity; purified PglD enzyme, DTNB colorimetric CoA detection; inhibition, % at 12.5 µM; AID 602405; 360,000 compounds, 0.098% hits; in the data active = inhibition above about 16%, passing the limit was not always enough
C2C12 statin: protects C2C12 myotubes from simvastatin toxicity. ATP luminescence, 48 h; scaled: DMSO 0, geranylgeraniol control 100. rescue of ATP level, % at 7.49 µM. 330,000 compounds, 0.78% hits;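 active = mean ATP rescue above about 67%, or every replicate alone reaching that limit, limit read from the data, passing the limit was not always enough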;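 note: myotubes were challenged with 10 µM simvastatin during compound exposure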
esBAF inh: SWI/SNF esBAF complex inhibition. mouse ES cells, Bmi1-luciferase knock-in reporter, 24 h; 100% = twice the neutral-well signal. reporter increase, % at 12.5 µM. 350,000 compounds, 2% hits. AID 602393; in the data active = activation above about 40%;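 note: 0% = median of the plate's neutral control wells and 100% = double that signal; a rise in the Bmi1 reporter signal indicates esBAF inhibition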
Numbers without * were called inactive; ! = repeats disagree. Compounds with a hit are over-represented: about 2.8% of the library has one in this group of screens.

`CCCc1ccc2oc(C(=O)N(C)Cc3nccs3)c(C)c2c1` gave E-sel inducer -1, PGC1a acetyl inh -15, UUG fidelity -1, PglD DTNB 3, C2C12 statin -6 and esBAF inh 52*.
Screening C[C@@H]1CCCCO[C@@H](CN(C)S(=O)(=O)c2cccs2)[C@@H](C)CN([C@@H](C)CO)C(=O)c2cc(NC(=O)c3ccncc3)ccc2O1 returned PGC1a acetyl inh 2, UUG fidelity 8, PglD DTNB 0 and esBAF inh -1.
Screening C[C@@H]1CN([C@H](C)CO)C(=O)c2cccc(NS(C)(=O)=O)c2O[C@H]1CN(C)CC1CC1 returned E-sel inducer 1, PGC1a acetyl inh 2, UUG fidelity -9, PglD DTNB -1, C2C12 statin -17 and esBAF inh 0.
C[C@@H]1CN([C@@H](C)CO)C(=O)c2cccc(NS(C)(=O)=O)c2O[C@H]1CN(C)CC1CCCCC1 was read as E-sel inducer 0, PGC1a acetyl inh -4, UUG fidelity -8, PglD DTNB 2, C2C12 statin 103*! and esBAF inh -3.
For C[C@@H]1CN([C@H](C)CO)C(=O)c2cccc(NS(=O)(=O)c3cccs3)c2O[C@@H]1CN(C)Cc1ccc(Oc2ccccc2)cc1 the results were E-sel inducer 8, PGC1a acetyl inh 5, UUG fidelity 6, PglD DTNB 1, C2C12 statin 79* and esBAF inh -5.
For C[C@@H]1CN([C@H](C)CO)C(=O)c2cccc(NS(C)(=O)=O)c2O[C@@H]1CN(C)Cc1ccc(Oc2ccccc2)cc1 the results were E-sel inducer 41*, PGC1a acetyl inh -5, UUG fidelity 3, PglD DTNB -1, C2C12 statin -2 and esBAF inh 0.
For C[C@@H]1CN([C@H](C)CO)C(=O)c2cccc(NS(=O)(=O)c3cccs3)c2O[C@@H]1CN(C)Cc1ccc(-c2ccccc2)cc1 the results were E-sel inducer -3, PGC1a acetyl inh -5, UUG fidelity 3, PglD DTNB -5, C2C12 statin 70* and esBAF inh -3.
For C[C@@H]1CN([C@H](C)CO)C(=O)c2cccc(NS(=O)(=O)c3cccs3)c2O[C@H]1CN(C)Cc1ccc(-c2ccccc2)cc1 the results were E-sel inducer 1, PGC1a acetyl inh -9, UUG fidelity -16, PglD DTNB -1, C2C12 statin 3 and esBAF inh 4.
`C[C@@H]1CN([C@@H](C)CO)C(=O)c2cccc(NS(C)(=O)=O)c2O[C@H]1CN(C)Cc1ccc(Oc2ccccc2)cc1` gave E-sel inducer 18, PGC1a acetyl inh -4, UUG fidelity -3, PglD DTNB -1, C2C12 statin -8 and esBAF inh -3.
Screening C[C@H](CO)N1C[C@H](C)[C@@H](CN(C)Cc2ccncc2)Oc2c(NS(C)(=O)=O)cccc2C1=O returned E-sel inducer 9, PGC1a acetyl inh 16, UUG fidelity 21, PglD DTNB 2, C2C12 statin -4 and esBAF inh 3.
For C[C@@H]1CN([C@H](C)CO)C(=O)c2cccc(NS(C)(=O)=O)c2O[C@H]1CN(C)Cc1ccncc1 the results were E-sel inducer 125*, PGC1a acetyl inh -2, UUG fidelity -11, PglD DTNB 1, C2C12 statin 34 and esBAF inh -2.
For COc1cccc(S(=O)(=O)Nc2ccc3c(c2)OC[C@H](C)NC[C@H](C)[C@H](OC)CN(C)C3=O)c1 the results were E-sel inducer 0, PGC1a acetyl inh 2, UUG fidelity 6, PglD DTNB 1, C2C12 statin -18 and esBAF inh -2.
C[C@H]1CN([C@@H](C)CO)C(=O)Cc2cc(NC(=O)NC3CCCCC3)ccc2O[C@@H]1CN(C)CC1CCCCC1 was read as E-sel inducer 0, PGC1a acetyl inh -4, UUG fidelity 3, PglD DTNB 0, C2C12 statin 47 and esBAF inh -3.
Cc1ccc(NC(=O)C2COc3ccccc3O2)c(C)c1 (configuration not stated) was read as E-sel inducer 0, PGC1a acetyl inh 32, UUG fidelity -13, PglD DTNB 3, C2C12 statin 12 and esBAF inh 45*.
For Cc1ccc(NC(=O)C2COc3ccccc3O2)cc1 (configuration not stated) the results were E-sel inducer 0, UUG fidelity -7, PglD DTNB -1, C2C12 statin 4 and esBAF inh 39.
Screening CC1(C)CC(=O)c2sc(NC(=O)C3COc4ccccc4O3)nc2C1 (configuration not stated) returned PGC1a acetyl inh -1, UUG fidelity -11, PglD DTNB -1, C2C12 statin -10 and esBAF inh 45*.
CC(=O)c1sc(NC(=O)C2COc3ccccc3O2)nc1C (configuration not stated) was read as E-sel inducer -1, UUG fidelity -69, PglD DTNB -2, C2C12 statin 14 and esBAF inh -51.
For Cc1cc(C)c2sc(NNC(=O)C3COc4ccccc4O3)nc2c1 (configuration not stated) the results were E-sel inducer 83*, PGC1a acetyl inh 4, UUG fidelity -15, C2C12 statin -5 and esBAF inh 2.
`CC(C)(C)c1csc(NC(=O)C2COc3ccccc3O2)n1` (configuration not stated) gave E-sel inducer -1, UUG fidelity -2, PglD DTNB -4, C2C12 statin 3 and esBAF inh 55*.
O=C(C1CCCCC1)N1CC2(C1)[C@H](c1ccccc1)[C@H](CO)N2Cc1cncnc1 was read as E-sel inducer 0 and PGC1a acetyl inh 6.
Screening C[C@H]1CN([C@@H](C)CO)C(=O)c2cc(-c3ccc(C#N)cc3)cnc2O[C@@H]1CN(C)C(=O)Nc1ccc(C(F)(F)F)cc1 returned E-sel inducer 0, PGC1a acetyl inh 17, PglD DTNB 0, C2C12 statin -3 and esBAF inh -7.
CN1C(=O)c2cc(NC(=O)c3cccs3)ccc2OC[C@H]2O[C@@H](CC(=O)N3CCCCC3)CC[C@H]21 was read as E-sel inducer 0, PGC1a acetyl inh 0, PglD DTNB 0, C2C12 statin 20 and esBAF inh 2.
For C[C@@H]1CCCCO[C@@H](CN(C)S(C)(=O)=O)[C@H](C)CN([C@H](C)CO)C(=O)c2cc(NS(=O)(=O)c3cn(C)cn3)ccc2O1 the results were E-sel inducer 0, PGC1a acetyl inh -19, UUG fidelity -21, PglD DTNB -3 and esBAF inh -4.
Screening O=C(/C=C/c1cccc(F)c1)Nc1nccs1 returned PGC1a acetyl inh -8, UUG fidelity -7, PglD DTNB 5, C2C12 statin -11 and esBAF inh 86*.
Screening O=C(/C=C\c1ccccc1)Nc1nccs1 returned UUG fidelity -21 and PglD DTNB -4.

Ordered by length of the SMILES (descending): part of the list above
Screening C[C@@H]1CN([C@H](C)CO)C(=O)c2cccc(NS(C)(=O)=O)c2O[C@H]1CN(C)CC1CC1 returned E-sel inducer 1, PGC1a acetyl inh 2, UUG fidelity -9, PglD DTNB -1, C2C12 statin -17 and esBAF inh 0.
`CCCc1ccc2oc(C(=O)N(C)Cc3nccs3)c(C)c2c1` gave E-sel inducer -1, PGC1a acetyl inh -15, UUG fidelity -1, PglD DTNB 3, C2C12 statin -6 and esBAF inh 52*.
For Cc1ccc(NC(=O)C2COc3ccccc3O2)cc1 (configuration not stated) the results were E-sel inducer 0, UUG fidelity -7, PglD DTNB -1, C2C12 statin 4 and esBAF inh 39.

High-throughput results deposited in PubChem BioAssay by Broad Institute.
